Assays:
[1] = target: T1, mature IL-18 (interleukin-18, residues 37-193) (human, UniProt Q14116-1 37-193); assay: NMR titration; 1H-15N spectra of [15N]-proIL-18PP (28.4 nmol in 300 uL) alone or with 320 uM (three molar equivalents) non-labelled IL-18; NMR buffer (20 mM potassium phosphate pH 6.0, 150 mM KCl, 1 mM TCEP); 25 °C; KD from cross-peak intensities; conditions: both partners purified
T1 construct: human interleukin-18, mature region, residues 37-193 of the precursor proIL-18 (NM_001562.3, residues 1-193); made by deleting residues 1-36 from the proIL-18 construct; Unlabelled or uniformly 15N-labelled, depending on the experiment; also called mature region of IL-18; [15N]-IL-18; source: in the caspase-1 experiment generated in situ from purified proIL-18 by caspase-1; not shown: His6, …
T1 sequence (looked up): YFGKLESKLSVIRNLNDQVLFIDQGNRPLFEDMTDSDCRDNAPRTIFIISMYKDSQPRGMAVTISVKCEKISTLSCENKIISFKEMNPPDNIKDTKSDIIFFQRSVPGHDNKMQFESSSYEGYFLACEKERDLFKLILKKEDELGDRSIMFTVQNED

[2] = target: T1, mature IL-18 (interleukin-18, residues …); assay: NMR (1H-15N SOFAST HMQC) with in situ caspase-1 cleavage; 200 uM [15N]-proIL-18 cut by 10 units caspase-1; spectra over about 24 h; 37 °C; caspase-1 reaction buffer (20 mM HEPES-Na pH 7.4, 100 mM NaCl, 1 mM EDTA, 10 mM DTT); KD estimated from the intensity left in proIL-18-like cross-peaks; conditions: both partners purified

B1: proIL-18PP (propeptide of proIL-18, residues 1-36) (peptide, UniProt Q14116-1 1-36, looked up)
peptide: MAAEPVEDNCINFVAMKFIDNTLYFIAEDDENLESD
notes: human interleukin-18 precursor (proIL-18, NM_001562.3), propeptide residues 1-36; made by replacing Y37 of the proIL-18 construct with a stop codon; Recombinant peptide, unlabelled or 15N-labelled, depending on the experiment; also called [15N]-proIL-18PP; [13C/15N]-proIL-18PP; source: in the caspase-1 experiment generated in situ from purified proIL-18 by caspase-1; not shown: His6, N-terminal, …
B1 was tested, and the Kd [1] was greater than 36 µM and the Kd [2] was roughly 100 µM.

Reference: paper PMC6467916 (Scientific Reports, 2019)
